Measurements taken from ChEMBL document CHEMBL1128295 (J Med Chem, 1995).

Legend:
[1] = biological target: Histamine H1 receptor (Cavia porcellus) (UniProt P31389); test: Contractile effect on isolated guinea pig ileal segments by H1 (histamine) receptor agonism.; assay type: functional
[2] = biological target: Histamine H1 receptor (Mus musculus) (UniProt P70174); test: In vivo binding of H1 receptor Agonists measured by binding of [3H]mepyramine to Mouse cerebral cortex at the dosage of ( 100 mg/kg(no. of mice treated= 4 ); conditions: at 100 mg/kg
[3] = biological target: Histamine H1 receptor (Cavia porcellus) (UniProt P31389); test: Contractile effects on guinea pig aorta as histamine H1 receptor agonism; assay type: functional, tissue-based
In short: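 Endothelium-denuded 4–6 mm guinea pig thoracic aortic rings, isometric (preload 10 mN), modified Krebs-Henseleit, 37 °C, 95% O2/5% CO2. […] Cumulative curves with 30 μM corticosterone, 100 μM cimetidine, 0.1 μM (R,S)-propranolol and phentolamine present.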

[4] = biological target: Histamine H1 receptor (Cavia porcellus) (UniProt P31389); test: The H1 receptor-mediated nature of the ileum contractionhas been verified by competition experiments with the H1 receptor antagonist mepyramine; assay type: functional, tissue-based
[5] = tested on: Histamine H1 receptor (Mus musculus); test: In vivo binding of H1 receptor Agonists measured by binding of [3H]mepyramine to Mouse cerebral cortex at the dosage of ( 3 mg/kg(no. of mice treated= 5 ); conditions: at 3 mg/kg
[6] = biological target: Histamine H1 receptor (Mus musculus) (UniProt P70174); test: In vivo binding of H1 receptor Agonists measured by binding of [3H]mepyramine to Mouse cerebral cortex at the dosage of ( 30 mg/kg(no. of mice treated= 5 ); conditions: at 30 mg/kg
[7] = biological target: Histamine H1 receptor (Mus musculus) (UniProt P70174); test: In vivo binding of H1 receptor Agonists measured by binding of [3H]mepyramine to Mouse cerebral cortex at the dosage of ( 10 mg/kg(no. of mice treated=5 ); conditions: at 10 mg/kg
[8] = biological target: Histamine H1 receptor (Cavia porcellus) (UniProt P31389); test: Contractile effect on isolated guinea pig ileal segments is a measure of H1 (histamine) receptor agonistic activity relative to histamine.; assay type: functional

Structure (SMILES): NCCc1c[nH]c(-c2cccc(Br)c2)n1
- pD2 [1]: 6.75
- Control [2]: 98%
- pKb [3]: 8.9
- pKb [4]: 9.17
- Control [5]: 106%
- Control [6]: 98%
- Control [7]: 98%
- Relative activity [8]: 112%
